# Apparent affinities of Ab-91 variants for a coronavirus HR2 peptide

From the AlphaSeq antibody data of Engelhart et al. 2022 (doi:10.1038/s41597-022-01779-4), copy in the FLAb collection.

The target is the same throughout: PDVDLGDISGINAS, from the HR2 region of SARS-CoV-2 spike.

Ab-91 is the parent antibody, in scFv form: VL, then three GGGGS repeats, then VH. The light chain is unchanged in all variants.
VL: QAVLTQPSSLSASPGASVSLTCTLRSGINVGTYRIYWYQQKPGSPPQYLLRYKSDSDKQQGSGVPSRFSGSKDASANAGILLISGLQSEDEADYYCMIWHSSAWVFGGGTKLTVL
VH: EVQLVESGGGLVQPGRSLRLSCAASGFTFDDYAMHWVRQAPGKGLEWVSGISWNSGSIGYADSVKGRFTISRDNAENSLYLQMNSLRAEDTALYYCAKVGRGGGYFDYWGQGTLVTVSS

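Phage display of a naive human antibody library on the peptide gave the parent. AAYL51 was designed without a model: most single CDR substitutions and a random sample of double and triple ones. The scFvs were displayed on barcoded MATa yeast, the peptide on MATalpha yeast. The frequency of each diploid, read from paired DNA barcodes, reflects how well the two displayed proteins bind. Read counts were normalised to the haploid input and turned into Kd by a linear fit to BCL2-family pairs of known affinity, for each replicate. Mating was done three times.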

Each variant is given by its three heavy chain CDRs, as the data file delimits them; those of the parent are GFTFDDYAMH, GISWNSGSIGYADSVK, VGRGGGYFDY. The read-out is the apparent dissociation constant on a log10 scale (nM): the lower, the stronger. "ND" marks a missing value. The strain was present, yet no cells mated with the target were sequenced in that replicate, which points to weak or no binding. For reference, the parent read 1.86 as the reference entry and 0.88 as a member of this library.

CDR-H1	CDR-H2	CDR-H3	replicates, log10 nM	empty controls
GFTFDDYAMH	GIKWNSGSITYADSVK	VGRGGGYFTY	ND / ND / ND	0/9
GFTFDDYAMH	GIVWNSGSIGYADSVK	VGRGRVYFDY	ND / ND / ND	2/9 (4.55)
GFTFCDYAMH	GISWNHGSIGYADSVK	VQRGGGYFDY	ND / ND / ND	0/9
GFDFDDYAMH	GISWNMGSIGCADSVK	VGRGGGYFDY	ND / ND / 4.67	6/9 (4.46)
MFTFDDYACH	GISWNSGSIGYADSVK	VGRGGGYFEY	5.66 / 5.58 / 5.47	3/9 (4.70)
GFTFDDYAMH	GISWNSGSIGYACSVK	VGRGMGYKDY	ND / ND / ND	1/9 (3.28)
GFTFIDYAMH	GIQWNSGSIGYADSVK	VVRGGGYFDY	5.55 / ND / ND	1/9 (4.04)
GWTFMDYAMH	GISWNSGSIGYADSVK	VGRGGGYFDY	ND / ND / ND	2/9 (3.46)
GFTFDDIAMH	GISWPSGSIGYMDSVK	VGRGGGYFDY	ND / ND / ND	4/9 (4.78)
DFTFDDYAMH	GISWNSGSMGYAKSVK	VGRGGGYFDY	ND / ND / ND	0/9
GFTFDDYAMH	GISWNSGRIGYADSGK	VGRCGGYFDY	ND / 5.10 / ND	2/9 (4.07)
GYTFDDYAMH	GISWNSGSLGYADSVK	VGRGGGSFDY	2.34 / 2.35 / 2.33	2/9 (5.26)
GFTFDDYAMR	GISWFSGSIPYADSVK	VGRGGGYFDY	ND / ND / ND	2/9 (5.10)
WFTFDDYAMH	MISWNSGSIGYHDSVK	VGRGGGYFDY	ND / ND / 4.54	0/9
GFTFDFYAMH	GISWNSGSRGYADSVK	VGRGGGYFTY	0.87 / 0.63 / 0.24	1/9 (4.26)
GFTFDDYAMH	GTSWNSGSIGYADSVK	HVRGGGYFDY	5.00 / ND / 4.73	0/9
WFTFDDYAMH	GICWNSGCIGYADSVK	VGRGGGYFDY	ND / ND / ND	1/9 (3.55)
GFTFDDYAMH	GIGWNSGSIGYADSVC	VGRGGGYFDY	ND / 5.60 / ND	2/9 (4.19)
GFTFDDYAMH	GISWNSGSIGYACSVK	LGGGGGYFDY	ND / ND / ND	1/9 (5.13)
GFTTDDYAMH	GISWNSGSIGYADVHK	VGRGGGYFDY	ND / ND / ND	2/9 (3.74)
GFTFDDYSMH	GISWNLGSPGYADSVK	VGRGGGYFDY	4.15 / 4.32 / 3.39	0/9
GFTFDDYAMH	GISWNSYSDGYDDSVK	VGRGGGYFDY	4.94 / ND / ND	0/9
GFTFDDYAMH	GIVWNSGSIGYAVSVK	VGRGGGYNDY	ND / ND / ND	0/9
GFTFDDYTMH	GHSWNSGSHGYADSVK	VGRGGGYFDY	ND / ND / ND	2/9 (4.44)
GFTFDDYAMH	GIYWNSGEIGYADSVK	VGRGGEYFDY	5.15 / 5.60 / ND	4/9 (4.48)
GFTFDDYAMH	GLSWNSGFIGYADSTK	VGRGGGYFDY	4.49 / 5.01 / ND	1/9 (3.96)
GFTFDDYAYH	GISWNSGSIYYADSVK	VGRGGGYFDY	ND / 4.24 / ND	1/9 (2.95)
GFTFDDYAMH	GRSKNSGSIGYRDSVK	VGRGGGYFDY	ND / ND / ND	0/9
EFTFPDYAMH	GISANSGSIGYADSVK	VGRGGGYFDY	4.47 / 4.85 / 4.89	9/9 (5.04)
GATFDDYAMH	GISANSGPIGYADSVK	VGRGGGYFDY	ND / 4.00 / ND	0/9
GFTFDDYAMH	GISWNSGSRGYADSVK	VGRGGGYFDY	ND / ND / ND	0/9
GFTFSDYAMH	GISWNSGSIGYADSVK	RGRGGGYWDY	ND / ND / ND	0/9
GFTFDDYAMH	GISWNMGSIGYGDSVK	VGRGGRYFDY	5.29 / ND / ND	2/9 (4.70)
GFTMDDYAMH	GISWNSGSIGYEDSVK	VGRWGGYFDY	1.42 / 1.40 / 1.23	0/9
GQTFDAYAMH	GISWNSGSIGYADSVK	VGRGGSYFDY	5.64 / 4.34 / 4.96	5/9 (4.73)
GFTFDDYAMH	NWSWNFGSIGYADSVK	VGRGGGYFDY	ND / ND / ND	0/9
GFTFDDYAMH	GIVWNRGSIGYADSVK	VGRGGGYFDY	ND / ND / ND	0/9
GFTFDDYAMH	GIVWNSGSIWYADSVK	VGRGGGYFDK	5.80 / ND / ND	4/9 (4.81)
GFTFDDACMH	GISWNSYSIGYADSVK	VGRGGGYFDY	4.63 / 5.06 / 5.89	7/9 (4.97)
GFTFDDYRMH	GISWNSGMIGYAGSVK	VGRGGGYFDY	6.25 / ND / ND	1/9 (5.54)
GFTFDDYAMH	GISWNSGSIPYAYSVK	VGRGVGYFDY	5.26 / 4.97 / ND	1/9 (4.21)

Nonspecific signal, from three strains lacking the peptide, appeared in 21% of pairings of library AAYL51, centred on 4.54 (5% of these signals below 3.26); values are not corrected for it. For each scFv, signals with the empty controls are counted beside the result, with their mean in brackets.